For data set [1] the following is noted: female SD rats.
For data set [2] the following is noted: nude mice.

Molecules are shown by their SMILES. Where two headings read alike, the source gives them in different places.

As to `C=CC(=O)N1CC[C@H](n2nc(C#Cc3cc(OC)cc(OC)c3)c3c(N)ncnc32)C1` [Ex. Compound 2, (S)-1-(3-(4-amino-3-((3,5-dimethoxyphenyl)ethynyl)-1H-pyrazolo[3,4-d]pyrimidin-1-yl)pyrrolidin-1-yl)prop-2-en-1-one], the body weight change result in data set [1] (15 mg/kg/day 14-day daily administration) is “body weight gain was suppressed”; in data set [1] (30 mg/kg/day 8-day daily administration), “body weight loss was observed”; in data set [1] (all intermittent administration groups), “body weight gain was observed”; in data set [2] (100 mg/kg/day daily) it was “body weight loss was observed”; in data set [2] (350 mg/kg/day twice a week) it was “body weight changes similar to that of the control group”; in data set [2] (700 mg/kg/day once a week), “body weight changes similar to that of the control group”. For the same molecule, the mortality entry in data set [2] (100 mg/kg/day daily) is “one case died”.
